# Ab-14 heavy chain CDR variants: yeast mating affinities

Values reported by Engelhart et al. 2022, doi:10.1038/s41597-022-01779-4 (FLAb copy).

The target is the same throughout: PDVDLGDISGINAS, from the HR2 region of SARS-CoV-2 spike.

Parent scFv Ab-14: VH joined to VL by three GGGGS repeats. Changes lie in the heavy chain CDRs alone.
VH: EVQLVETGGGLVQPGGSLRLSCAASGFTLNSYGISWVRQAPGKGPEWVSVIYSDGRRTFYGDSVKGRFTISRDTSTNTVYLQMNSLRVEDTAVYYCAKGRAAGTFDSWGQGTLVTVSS
VL: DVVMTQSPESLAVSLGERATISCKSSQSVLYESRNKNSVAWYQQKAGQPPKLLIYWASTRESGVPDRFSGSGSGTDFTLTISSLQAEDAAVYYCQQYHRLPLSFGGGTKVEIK

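Phage display of a naive human antibody library on the peptide gave the parent. Library AAYL49 holds single substitutions and randomly drawn double and triple substitutions in the CDRs. In AlphaSeq, yeast of one mating type display the scFv and yeast of the other type display the target. Binding brings cells together so that they mate, and sequencing counts the barcode pairs among the diploids. Read counts were normalised to the haploid input and turned into Kd by a linear fit to BCL2-family pairs of known affinity, for each replicate. There are three technical replicates.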

Each variant is given by its three heavy chain CDRs, as the data file delimits them; those of the parent are GFTLNSYGIS, VIYSDGRRTFYGDSVK, GRAAGTFDS.
Affinities are written as log10 Kd with Kd in nM; a lower number is a better binder.
"ND" marks a missing value. The strain was present, yet no cells mated with the target were sequenced in that replicate, which points to weak or no binding.
Empty control strains, which show no peptide, gave a signal in 15% of pairings with library AAYL49; the median was 4.06 and 95% of these signals were weaker than 2.83. No background was subtracted. Also given: how often the same scFv was detected with the empty control strains, with their mean in brackets.
Parent in this assay: reference entry 0.65, copy in this library 4.11 (one replicate of three).

{"CDR-H1": "GFTLNSDGIS", "CDR-H2": "VIYSDGRRTFYKDSVK", "CDR-H3": "GRAALTFDS", "log10 Kd, replicates": "ND / ND / ND", "control signals": "1/9 (3.95)"}
{"CDR-H1": "GFTLNRYGIS", "CDR-H2": "VIYSDGRSTFYGDSVK", "CDR-H3": "GRAAGQFDS", "log10 Kd, replicates": "ND / ND / ND", "control signals": "1/9 (3.27)"}
{"CDR-H1": "GFTLNSYGIS", "CDR-H2": "VIYSDGRRTFYGDSVR", "CDR-H3": "GRAAGTFRN", "log10 Kd, replicates": "0.88 / 1.14 / 1.21", "control signals": "1/9 (3.65)"}
{"CDR-H1": "GFTLNSYGIS", "CDR-H2": "VIYSDGRRLFYGDSVK", "CDR-H3": "GRKAGYFDS", "log10 Kd, replicates": "4.22 / ND / 2.59", "control signals": "0/9"}
{"CDR-H1": "GFTLNSYGQS", "CDR-H2": "VIYSDGRPTFYGDSVK", "CDR-H3": "GRYAGTFDS", "log10 Kd, replicates": "ND / ND / ND", "control signals": "0/9"}
{"CDR-H1": "GFTLNSNGIS", "CDR-H2": "VIYSDGRRTFYGDSVK", "CDR-H3": "GRAAGTFDS", "log10 Kd, replicates": "1.51 / 1.51 / 1.72", "control signals": "1/9 (3.49)"}
{"CDR-H1": "GFTLNDYGIS", "CDR-H2": "VIYSDGRRTFYGLSVK", "CDR-H3": "GRAAGNFDS", "log10 Kd, replicates": "ND / ND / ND", "control signals": "0/9"}
{"CDR-H1": "GFTLNSYGIA", "CDR-H2": "VIYSDGRMTFYGDSVK", "CDR-H3": "GRAAGTFVS", "log10 Kd, replicates": "ND / ND / ND", "control signals": "0/9"}
{"CDR-H1": "GYTLNHYGIS", "CDR-H2": "VIYSDGRRFFYGDSVK", "CDR-H3": "GRAAGTFDS", "log10 Kd, replicates": "2.27 / 1.73 / 2.41", "control signals": "2/9 (3.38)"}
{"CDR-H1": "GFTLNSYGIS", "CDR-H2": "VIYSDGRRTFYGRSVK", "CDR-H3": "GRAADTPDS", "log10 Kd, replicates": "ND / ND / ND", "control signals": "0/9"}
{"CDR-H1": "GITLNSYGIS", "CDR-H2": "VIYSDGRRTFYGTSVK", "CDR-H3": "GRAAGTWDS", "log10 Kd, replicates": "3.03 / 3.26 / 4.47", "control signals": "1/9 (3.81)"}
{"CDR-H1": "GCTLNPYGIS", "CDR-H2": "VIYSDIRRTFYGDSVK", "CDR-H3": "GRAAGTFDS", "log10 Kd, replicates": "ND / ND / ND", "control signals": "0/9"}
{"CDR-H1": "WFTLNSYGIS", "CDR-H2": "VIYSMGRRTFYGDSVK", "CDR-H3": "GTAAGTFDS", "log10 Kd, replicates": "ND / ND / ND", "control signals": "0/9"}
{"CDR-H1": "GFTLESYGIS", "CDR-H2": "VIYSDGRRYFYGDSVK", "CDR-H3": "GRAAGTCDS", "log10 Kd, replicates": "5.26 / ND / ND", "control signals": "0/9"}
{"CDR-H1": "FFTCNSYGIS", "CDR-H2": "VIYSDGRRTFQGDSVK", "CDR-H3": "GRAAGTFDS", "log10 Kd, replicates": "ND / 4.03 / 4.80", "control signals": "6/9 (4.59)"}
{"CDR-H1": "PFTLNSYGIS", "CDR-H2": "VIYSDPRRTDYGDSVK", "CDR-H3": "GRAAGTFDS", "log10 Kd, replicates": "3.18 / ND / ND", "control signals": "1/9 (3.66)"}
{"CDR-H1": "GFTDNSYGIS", "CDR-H2": "VIYIDGRRTFYGDSVK", "CDR-H3": "GRAAGTFES", "log10 Kd, replicates": "ND / 3.66 / ND", "control signals": "1/9 (2.82)"}
{"CDR-H1": "GFTLLSYGIS", "CDR-H2": "VIYSDGRRTFYTDSHK", "CDR-H3": "GRAAGTFDS", "log10 Kd, replicates": "ND / ND / ND", "control signals": "6/9 (3.86)"}
{"CDR-H1": "GFTLNSIGIS", "CDR-H2": "VIYSDGRRTFLGDSQK", "CDR-H3": "GRAAGTFDS", "log10 Kd, replicates": "ND / ND / ND", "control signals": "1/9 (3.29)"}
{"CDR-H1": "GFTLNGYGIS", "CDR-H2": "VYYSDGRRTFYGDSVK", "CDR-H3": "GRAAGTFDS", "log10 Kd, replicates": "ND / ND / ND", "control signals": "1/9 (2.33)"}
{"CDR-H1": "GFTLNSYGIS", "CDR-H2": "VAYSDGRRTFYGRSVK", "CDR-H3": "GHAAGTFDS", "log10 Kd, replicates": "4.70 / ND / ND", "control signals": "1/9 (3.89)"}
{"CDR-H1": "GFTLNSYEIS", "CDR-H2": "VIYSDGRRTMKGDSVK", "CDR-H3": "GRAAGTFDS", "log10 Kd, replicates": "ND / ND / ND", "control signals": "0/9"}
{"CDR-H1": "GGTLNSYGIS", "CDR-H2": "VIYSDTRRTFYGDSVK", "CDR-H3": "GRMAGTFDS", "log10 Kd, replicates": "ND / ND / ND", "control signals": "0/9"}

From the list, the first 4 with no signal in any replicate:

{"CDR-H1": "GFTLNSDGIS", "CDR-H2": "VIYSDGRRTFYKDSVK", "CDR-H3": "GRAALTFDS", "log10 Kd, replicates": "ND / ND / ND", "control signals": "1/9 (3.95)"}
{"CDR-H1": "GFTLNRYGIS", "CDR-H2": "VIYSDGRSTFYGDSVK", "CDR-H3": "GRAAGQFDS", "log10 Kd, replicates": "ND / ND / ND", "control signals": "1/9 (3.27)"}
{"CDR-H1": "GFTLNSYGQS", "CDR-H2": "VIYSDGRPTFYGDSVK", "CDR-H3": "GRYAGTFDS", "log10 Kd, replicates": "ND / ND / ND", "control signals": "0/9"}
{"CDR-H1": "GFTLNDYGIS", "CDR-H2": "VIYSDGRRTFYGLSVK", "CDR-H3": "GRAAGNFDS", "log10 Kd, replicates": "ND / ND / ND", "control signals": "0/9"}